Source: EP2246331A1, “NR2B-selective NMDA-receptor antagonists” (Westfälische Wilhelms-Universität Münster, priority 2009, dated 2010)
pKi: −log10 of the molar value.

Sequences of proteins named here, by UniProt entry; tags and fusion partners are left off. Residues count along the entry.
UniProt Q13224, 27-1484 limits assumed: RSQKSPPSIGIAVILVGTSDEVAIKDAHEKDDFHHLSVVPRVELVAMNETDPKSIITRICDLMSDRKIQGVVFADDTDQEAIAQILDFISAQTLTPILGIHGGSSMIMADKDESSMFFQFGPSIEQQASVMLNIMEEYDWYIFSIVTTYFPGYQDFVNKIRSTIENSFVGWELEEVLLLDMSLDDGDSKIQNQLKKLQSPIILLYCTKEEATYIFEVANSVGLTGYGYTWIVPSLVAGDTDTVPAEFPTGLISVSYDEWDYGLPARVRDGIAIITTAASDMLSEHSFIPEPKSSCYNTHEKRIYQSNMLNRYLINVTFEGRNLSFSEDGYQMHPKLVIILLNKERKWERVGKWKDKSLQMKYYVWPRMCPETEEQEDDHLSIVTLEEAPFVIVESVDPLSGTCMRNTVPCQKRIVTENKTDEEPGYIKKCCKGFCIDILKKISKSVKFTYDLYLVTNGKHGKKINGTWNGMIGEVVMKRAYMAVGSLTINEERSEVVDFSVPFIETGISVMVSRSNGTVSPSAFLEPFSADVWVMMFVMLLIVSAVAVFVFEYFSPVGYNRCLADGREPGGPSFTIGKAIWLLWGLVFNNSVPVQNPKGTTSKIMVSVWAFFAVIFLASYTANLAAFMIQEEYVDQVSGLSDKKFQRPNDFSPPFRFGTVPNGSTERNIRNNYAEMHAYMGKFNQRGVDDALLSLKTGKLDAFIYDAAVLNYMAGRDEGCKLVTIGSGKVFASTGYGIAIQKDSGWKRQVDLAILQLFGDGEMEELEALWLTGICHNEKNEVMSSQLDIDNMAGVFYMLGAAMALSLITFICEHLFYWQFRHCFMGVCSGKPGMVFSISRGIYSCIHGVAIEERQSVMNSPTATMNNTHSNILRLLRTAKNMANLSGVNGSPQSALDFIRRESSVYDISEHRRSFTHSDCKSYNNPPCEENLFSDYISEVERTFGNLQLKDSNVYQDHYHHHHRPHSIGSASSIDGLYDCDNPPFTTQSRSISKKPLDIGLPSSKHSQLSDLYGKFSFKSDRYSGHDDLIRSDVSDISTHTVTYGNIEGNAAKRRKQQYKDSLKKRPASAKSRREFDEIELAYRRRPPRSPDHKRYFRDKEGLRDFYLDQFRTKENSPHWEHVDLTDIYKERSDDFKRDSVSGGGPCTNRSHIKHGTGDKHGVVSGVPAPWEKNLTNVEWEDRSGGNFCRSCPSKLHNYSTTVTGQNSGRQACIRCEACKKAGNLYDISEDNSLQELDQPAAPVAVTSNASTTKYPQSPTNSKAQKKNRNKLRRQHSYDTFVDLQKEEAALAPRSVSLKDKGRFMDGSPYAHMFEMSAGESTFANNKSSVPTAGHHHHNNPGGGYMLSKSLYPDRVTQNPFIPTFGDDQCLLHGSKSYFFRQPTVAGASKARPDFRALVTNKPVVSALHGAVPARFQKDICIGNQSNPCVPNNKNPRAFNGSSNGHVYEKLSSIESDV
UniProt Q5U3Y7, whole entry: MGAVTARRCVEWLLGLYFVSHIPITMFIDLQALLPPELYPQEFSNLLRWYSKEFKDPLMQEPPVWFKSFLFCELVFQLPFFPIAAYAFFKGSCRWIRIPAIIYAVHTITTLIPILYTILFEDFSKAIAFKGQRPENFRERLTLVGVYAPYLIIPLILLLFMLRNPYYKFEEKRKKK

What was measured:
[1] = biological target: polyamine binding site of the NR2B subunit of the NMDA receptor (Homo sapiens, UniProt Q05586+Q13224); experiment: Filtration-based receptor binding assay with [3H]-Ifenprodil as radioligand; details: read-out: affinity to the NR2B binding site of the NMDA receptor; 5 nM [3H]-Ifenprodil; membrane homogenates of mouse L(tk-) cells transfected with NR1-1a/NR2B; 180 min at 37 °C; Ki mean of three experiments ± S.E.M.
σ2 receptor = σ2 receptor (Rattus norvegicus, UniProt Q5U3Y7); experiment: Receptor binding assay with [3H]-ditolylguanidine on rat liver membranes; details: read-out: affinity to the σ2 receptor, 3 nM [3H]-ditolylguanidine with 2 µM (+)-pentazocine, 180 min at room temperature, mean ± SEM

pKi [1]: 7.33 | pKi (σ2 receptor): 7.47
SMILES: O=C(CCCN1CCc2cc(O)ccc2C(O)C1)c1ccc(F)cc1 (centres unmarked)
